According to PubChem BioAssay AID2177 (The Scripps Research Institute Molecular Screening Center, 2009):
The list shows a part of the results, in another mix than the full data. Active and inactive are the calls of the source.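 Rule for the calls: active = inhibition above the screen-wide mean plus 3 SD, limit set per campaign (cut at about 26% in these data); inactive = the rest.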

The chains behind the UniProt entries cited, without tags or fusion partners.
UniProt O95372, whole entry: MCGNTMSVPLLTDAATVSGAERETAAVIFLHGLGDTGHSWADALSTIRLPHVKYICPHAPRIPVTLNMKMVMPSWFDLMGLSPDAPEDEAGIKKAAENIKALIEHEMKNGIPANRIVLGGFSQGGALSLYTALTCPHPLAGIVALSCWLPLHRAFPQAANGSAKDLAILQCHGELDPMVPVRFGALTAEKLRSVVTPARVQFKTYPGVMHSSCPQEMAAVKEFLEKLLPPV

What follows are compounds tested against Acyl-protein thioesterase 2 (Homo sapiens) (UniProt O95372) (assay: inhibition of human lysophospholipase 2 – biochemical, fluorescence polarization, FP-Rh probe ABPP, counter-screen for PME1 inhibitor project, primary screen (AID 2177;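 note: 0% = LYPLA2 with DMSO and 100% = wells lacking LYPLA2 enzyme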)). Conditions: recombinant LYPLA2, FP-Rh probe fluorescence polarization; at 5.9 µM; active compounds read high.

Row | Structure (SMILES) | inhibition
1 | CN(C)C1(CNC(=O)c2cccc(C#N)c2)CCCCC1 | inactive: 1.27%
2 | c1ccc(CN2CCC(Nc3ccccc3)CC2)cc1 | inactive: 0.02%
3 | CCCN1CCC(Nc2cc(OC)cc(OC)c2)CC1 | inactive: 1.38%
4 | N#Cc1ccc(C(=O)NCC2(N3CCCCC3)CCCCC2)cc1 | inactive: -1.45%
5 | CC(C)(C)OC(=O)N1CCC(N(C(=O)c2ccccc2)c2ccc(Cl)cc2)CC1 | inactive: 0.73%
6 | O=C(OC1CN2CCC1CC2)C1c2ccccc2C=Cc2ccccc21 (stereo unspecified) | inactive: 2.27%
7 | CCc1cc(C(=O)NCC2(N3CCCCC3)CCCCC2)sc1C | inactive: 5.74%
8 | CCOC(=O)N1CCC(Nc2ccc(C)cc2)CC1 | inactive: 2.89%
9 | N/C(=N\O)c1c(N)no[n+]1[O-] | inactive: -12%
10 | COc1ccc(C(=O)NCC2(N3CCOCC3)CCCCC2)cc1OC | inactive: 3.34%
11 | O=C(NCC1(N2CCOCC2)CCCCC1)c1cc(Br)ccc1Cl | inactive: 3.89%
12 | CN1CCC(Nc2ccc(Cl)cc2)CC1 | inactive: -3.53%
13 | CCCOc1ccc(C)cc1CN(CCCl)CCCl | inactive: -1.86%
14 | COc1cc(OC)cc(C(=O)NCC2(N3CCOCC3)CCCCC2)c1 | inactive: 5.1%
15 | COc1cccc(C(=O)N(c2cc(C)cc(C)c2)C2CCN(C(=O)OC(C)(C)C)CC2)c1 | inactive: -3.56%
16 | CCC(CO)(C(=O)OC1CN2CCC1CC2)c1ccccc1 (stereo unspecified) | inactive: 3.59%
17 | CC(C)(C)OC(=O)N1CCC(Nc2ccccc2)CC1 | inactive: 3.72%
18 | O=C(O)C1(Nc2ccccc2)CCN(Cc2ccccc2)CC1 | inactive: 2.17%
19 | CCCOc1ccc(C(=O)NCC2(N(C)C)CCCCC2)cc1 | inactive: -6.95%
20 | CCOc1ncccc1C(=O)NCC1(N2CCOCC2)CCCCC1 | inactive: 3.48%
21 | CN1CCC(Nc2ccc(F)c(Cl)c2)CC1 | inactive: 0.07%

Row | Structure (SMILES) | inhibition
22 | O=C(NCC1(N2CCCCC2)CCCCC1)c1ccco1 | inactive: -4.15%
23 | CN(C)c1ccc(C(=O)NCC2(N3CCCCC3)CCCCC2)cc1 | inactive: 3.53%
24 | CCN1CCC(Nc2cccc(F)c2)CC1 | inactive: 5.19%
25 | Cc1ccc(C(=O)NCC2(N3CCCCC3)CCCCC2)o1 | inactive: 5.69%
26 | Fc1ccccc1NC1CCN(Cc2ccccc2)CC1 | inactive: -0.36%
27 | COc1cc(OC)cc(C(=O)NCC2(N3CCCCC3)CCCCC2)c1 | inactive: 6.94%
28 | CCOC(=O)N1CCC(Nc2cccc(C)c2)CC1 | inactive: -0.08%
29 | Cc1ccc(OCC(C)C)c(CN(CCCl)CCCl)c1 | inactive: 3.83%
30 | O=C(NCC1(N2CCCCC2)CCCCC1)c1ccc(F)cc1 | inactive: -0.06%
31 | COc1ccc(NC2CCN(CCc3ccccc3)CC2)c(OC)c1 | inactive: 2.77%
32 | CCOc1ccc(C)cc1CN(CCCl)CCCl | inactive: 2.09%
33 | O=C(OC1CN2CCC1CC2)C1c2ccccc2Oc2ccccc21 (stereo unspecified) | inactive: 3.15%
34 | N#CC1(Nc2ccccc2)CCN(Cc2ccccc2)CC1 | inactive: -4.9%
35 | O=C(NCC1(N2CCCCC2)CCCCC1)c1ccc(Cl)s1 | inactive: 5.94%
36 | COc1ccc(Cl)cc1C(=O)NCC1(N2CCOCC2)CCCCC1 | inactive: 6.26%
37 | CCOC(=O)N1CCC(Nc2ccc(OC)cc2)CC1 | inactive: -1.5%
38 | O=C(NCC1(N2CCCCC2)CCCCC1)c1ccc(Cl)nc1 | inactive: 5.42%
39 | Cc1cc(C)cc(N(C(=O)c2ccccc2)C2CCN(C(=O)OC(C)(C)C)CC2)c1 | inactive: 7.01%
40 | O=C(NCC1(N2CCOCC2)CCCCC1)c1cc2ccccc2o1 | inactive: 4%
41 | CSc1ccccc1C(=O)NCC1(N2CCCCC2)CCCCC1 | inactive: -1.97%
42 | COc1ccc(C(=O)NCC2(N3CCCCC3)CCCCC2)cc1 | inactive: 9.77%

Row | Structure (SMILES) | inhibition
43 | COc1ccc(C(=O)NCC2(N3CCCCC3)CCCCC2)c(OC)c1OC | inactive: -1.46%
44 | CC(C)(C)OC(=O)N1CCC(N(C(=O)c2ccccc2)c2ccc(F)cc2)CC1 | inactive: 0.98%
45 | O=C(NCC1(N2CCCCC2)CCCCC1)c1ccc(=O)[nH]c1 | inactive: 11.9%
46 | O=C(NCC1(N2CCCCC2)CCCCC1)c1cccs1 | inactive: -0.65%
47 | O=C(NCC1(N2CCCCC2)CCCCC1)c1cncc(Br)c1 | inactive: 6.21%
48 | CN1CCC(Nc2cccc(F)c2)CC1 | inactive: 5.94%
49 | COc1cc(OC)c(C(=O)NCC2(N(C)C)CCCCC2)cc1OC | inactive: -0.91%
50 | CC(C)c1ccc(NC2CCN(C(=O)OC(C)(C)C)CC2)cc1 | inactive: 2.9%
51 | COc1ccc(CN(CCCl)CCCl)cc1Cl | inactive: 3.58%
52 | CN(C)c1cccc(C(=O)NCC2(N3CCCCC3)CCCCC2)c1 | inactive: -2.2%
53 | COc1cc(C(=O)NCC2(N3CCCCC3)CCCCC2)ccc1OC(F)F | inactive: -2.37%
54 | O=C(NCC1(N2CCOCC2)CCCCC1)c1cc(=O)[nH]c2ccccc12 | inactive: -5.35%
55 | CN1CCN(CCOC(=O)C(O)(c2ccccc2)c2ccccc2)CC1 | inactive: 1.13%
56 | COc1ccc(NC2CCN(C(=O)OC(C)(C)C)CC2)cc1 | inactive: 2.05%
57 | O=C(NCC1(N2CCCCC2)CCCCC1)c1cccc(C(F)(F)F)c1 | inactive: 3.23%
58 | CCN1CCC(Nc2ccc(Cl)cc2)CC1 | inactive: -1.24%
59 | N#CC1(Nc2ccccc2)CCN(CCc2ccccc2)CC1 | inactive: 2.72%
60 | O=C(NCC1(N2CCCCC2)CCCCC1)c1cccc([N+](=O)[O-])c1 | inactive: 1.62%
61 | O=C(NCC1(N2CCCCC2)CCCCC1)c1ccc(OC(F)F)cc1 | inactive: -3.25%
